# Ab-14 heavy chain CDR variants: yeast mating affinities

Values reported by Engelhart et al. 2022, doi:10.1038/s41597-022-01779-4 (FLAb copy).

Antigen: PDVDLGDISGINAS, a 14-residue peptide of the SARS-CoV-2 spike HR2 region.

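The parent was found by panning a naive human phage display library on the peptide. In library AAYL49, one, two or three CDR residues were substituted; doubles and triples were drawn at random. The scFvs were displayed on barcoded MATa yeast, the peptide on MATalpha yeast. After mating in shaken culture at 30 °C for 16 h, diploids were selected and their barcode pairs sequenced. Each replicate has its own calibration line, from reference interactions of the BCL2 family. The assay was run in three technical replicates.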

Each scFv is VH, a 15-residue (Gly4Ser)3 linker, VL, as in the parent Ab-14, and differs from it in the CDRs of the heavy chain only.
VH: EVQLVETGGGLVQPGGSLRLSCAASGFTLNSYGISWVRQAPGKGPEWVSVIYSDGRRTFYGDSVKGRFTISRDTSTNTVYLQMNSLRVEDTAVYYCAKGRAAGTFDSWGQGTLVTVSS
VL: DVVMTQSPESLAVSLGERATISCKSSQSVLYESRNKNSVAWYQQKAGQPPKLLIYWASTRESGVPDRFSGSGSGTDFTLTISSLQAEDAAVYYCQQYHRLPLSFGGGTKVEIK

Variants are written as CDR1, CDR2 and CDR3 of the heavy chain (limits as in the source). Parent: GFTLNSYGIS, VIYSDGRRTFYGDSVK, GRAAGTFDS.
Numbers give log10(Kd / nM), so 0 is 1 nM and 3 is 1 µM. Smaller is tighter.
A mean of the replicates is given; it leaves out those without a signal.
"ND" marks a missing value. The strain was present, yet no cells mated with the target were sequenced in that replicate, which points to weak or no binding.
For reference, the parent read 0.65 as the reference entry and 4.11 (one replicate of three) as a member of this library.
As a blank, each scFv also met three strains without target: over library AAYL49, 15% of these pairings were detected, typically at 4.06 and seldom below 2.83.

The variant GFTLNSYGIS, VIYCDGRRTFYGDCVK, GRAAGTPDS showed ND, 4.97, 3.79 (mean 4.38).
The variant GFTLNSYGIS, VIYSDGCRTFYGDSVK, GRNAGTFDS showed 1.65, 1.64, 1.64 (mean 1.64).
The variant MFTLNSYGIS, FIYSDGRRTFYGDSVK, GRAAGIFDS showed ND, ND, ND.
The variant GFTLNSYWIS, VIPVDGRRTFYGDSVK, GRAAGTFDS showed ND, ND, 5.13.
The variant GFTLNEYGIS, VIYFDGRRTFYGDSVK, GRAAGTFDL showed 0.36, 0.68, 0.60 (mean 0.55).
The variant GFTLNEYGIS, SISSDGRRTFYGDSVK, GRAAGTFDS showed 7.08, 5.10, 4.72 (mean 5.63).
The variant GFTLNSYGIS, VIYSEGRVTFYGDSVK, GRAAGFFDS showed ND, ND, ND.
The variant GFTDNSSGIS, VIYDDGRRTFYGDSVK, GRAAGTFDS showed 3.75, ND, 4.24 (mean 3.99).
The variant GFTLNSYGIS, WIYSDGRTEFYGDSVK, GRAAGTFDS showed ND, ND, 5.90.
The variant GFTLNSYGIS, VIYSYGRRTFYGDSVK, GRAKGTFQS showed 5.78, ND, 4.25 (mean 5.01).
The variant GFDLNSYGIS, VIYSDGRRAFYGDSVK, GRWAGTFDS showed 0.24, 0.37, 0.30 (mean 0.30).
The variant GFTLNSYGIS, VIYSDGVRTFEGDSEK, GRAAGTFDS showed ND, ND, ND.
The variant GFTLNSMGIS, VIYSDGRRTFYGDSVK, QRAAGTFDS showed ND, ND, ND.
The variant GMTLNSYAIS, VWYSDGRRTFYGDSVK, GRAAGTFDS showed ND, 3.94, ND.
The variant GFTLNFYGIS, VIYSDGRNTFYGDSVK, GRAAKTFDS showed ND, ND, ND.
The variant GFTLHYYGIS, VIYSDGRRTFYIDSVK, GRAAGTFDS showed ND, 3.09, ND.
The variant GFTLNSQGIS, VIYSVGRETFYGDSVK, GRAAGTFDS showed ND, ND, ND.
The variant VFTLNSYGIS, VIYSDGRRTFYGISVK, GRAEGTFDS showed ND, ND, ND.
The variant GFTLNSYGIS, VIYSDIRRTFYGDSVK, GPAAGTFKS showed ND, ND, ND.
The variant GFTLKSYGIS, VIYSDGRRTFYGDIVK, GNAAGTFDS showed 2.24, 2.06, 2.39 (mean 2.23).
The variant GFTLNQYGIS, VIYSDGRRTFYGDSVA, GRAAGTFIS showed 2.69, 2.20, 2.50 (mean 2.47).
The variant GFTLHSYGIS, VIYSDPRRTFYGDSVK, GRAAGTFDS showed ND, 2.90, ND.
The variant GFTLNIYGIS, VIYSDGRRDFYGDSVK, GDAAGTFDS showed ND, ND, ND.
The variant GFTLNSGGIL, VIYSNGRRTFYGDSVK, GRAAGTFDS showed ND, ND, 5.36.
The variant GFTLNSYGYS, HIYSDGRRTFYGDSVK, GRAAGTFTS showed ND, ND, ND.
The variant GFTLNEYGIS, VIYSDGRRMFYGDSVK, GSAAGTFDS showed ND, 1.25, 1.15 (mean 1.20).
The variant GFTLNSYGIS, VIYSDGRFIFYGDSVK, GVAAGTFDS showed ND, ND, ND.
The variant GFTLFSYGIS, VIISDGRRTFYGDSVK, GRAAGIFDS showed ND, ND, ND.
The variant GFTLNSYKIS, VIYSDGRRTFYGDSVK, GRAAGTFQS showed ND, ND, ND.
The variant GFTLNAYGSS, VIYSDGRRTFYGDSVK, GGAAGTFDS showed 4.98, ND, 4.60 (mean 4.79).
The variant GFTLNSYGIS, VIYSDGRRTFYHDSNK, GRAAGTFES showed ND, ND, ND.
The variant GFTLNSYGIS, VIYSCGRRTFYGNSVK, WRAAGTFDS showed ND, ND, ND.
The variant RFTLNSYYIS, VIYSDGRRTFYGDSVK, GRAAGHFDS showed ND, ND, ND.
The variant GFTLNSAGIS, AIYSDGRRTFYGDSVK, GRAAGTFDD showed ND, ND, ND.
The variant GFTLNSYWIS, VIYSDGRRTFYGDTVK, QRAAGTFDS showed ND, 3.74, ND.
The variant GFTLNSYGIA, VIMSDGRRTFYGDSVK, GRAAGTKDS showed ND, ND, ND.

5 of these entries, quoted again:

CDR-H1,CDR-H2,CDR-H3,"log10 Kd, replicates","mean, log10 nM"
GMTLNSYAIS,VWYSDGRRTFYGDSVK,GRAAGTFDS,"ND, 3.94, ND",3.94
GFTLHYYGIS,VIYSDGRRTFYIDSVK,GRAAGTFDS,"ND, 3.09, ND",3.09
GFTLNSYGIS,VIYSDGRRTFYHDSNK,GRAAGTFES,"ND, ND, ND",ND
GFTLNEYGIS,VIYFDGRRTFYGDSVK,GRAAGTFDL,"0.36, 0.68, 0.60",0.55
GFTLNSYGIS,VIYSDGRFIFYGDSVK,GVAAGTFDS,"ND, ND, ND",ND